# Data published in PubChem BioAssay AID1136 (Sanford-Burnham Center for Chemical Genomics, 2008).
# Protein sequences, listed by entry. Tags and fused reporters are not part of them.
# UniProt P05186, whole entry: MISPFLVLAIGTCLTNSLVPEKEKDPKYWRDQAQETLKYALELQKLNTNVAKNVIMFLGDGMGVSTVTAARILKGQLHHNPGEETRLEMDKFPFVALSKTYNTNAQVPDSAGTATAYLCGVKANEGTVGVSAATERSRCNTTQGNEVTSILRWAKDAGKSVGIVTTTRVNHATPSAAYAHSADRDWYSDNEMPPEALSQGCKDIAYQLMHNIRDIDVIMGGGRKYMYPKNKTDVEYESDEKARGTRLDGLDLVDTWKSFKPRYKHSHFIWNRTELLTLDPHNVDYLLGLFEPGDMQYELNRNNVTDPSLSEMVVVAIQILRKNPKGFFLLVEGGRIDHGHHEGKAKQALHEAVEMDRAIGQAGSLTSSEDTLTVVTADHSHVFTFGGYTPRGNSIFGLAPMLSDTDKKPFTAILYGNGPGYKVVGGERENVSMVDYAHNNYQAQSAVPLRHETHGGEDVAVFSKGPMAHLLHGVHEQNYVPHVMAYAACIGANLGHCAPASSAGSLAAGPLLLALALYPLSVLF
# Some of the results follow. Some results for these compounds are left out of this collection, so the calls shown say nothing about other tests. The source made the active and inactive calls.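 Rule for the calls: active = activation factor at least 2 at 20 µM; inactive = the rest.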
# Molecular target: Alkaline phosphatase, tissue-nonspecific isozyme (Homo sapiens) (UniProt P05186)
# Experiment: TNAP activators at high phosphate acceptor level, primary screen, biochemical, luminescence, uHTS (AID 1136)
# Conditions: purified TNAP, CDP-star luminescence, 1 M DEA, 30 min, at 20 µM; hits give high values, 0 = EDTA background, 1 = DMSO-only activity
row,SMILES,activation factor
1,O=C(NCC1(N2CCCCC2)CCCCC1)c1cc([N+](=O)[O-])ccc1Cl,inactive
2,CC(C)N1C(=O)CC2(CCN(CCOC(=O)C(O)(c3ccccc3)c3ccccc3)CC2)C1=O,inactive
3,Cc1ccccc1C(=O)NCC1(N2CCCCC2)CCCCC1,inactive: 1.1
4,CN(C)C1CCCC1OC(=O)C(O)(c1ccccc1)c1ccccc1 (centres undefined),inactive: 1.1
5,C=CCN1CCN(CCOC(=O)C(O)(c2ccccc2)c2ccccc2)CC1,inactive: 1.1
6,CCN1CCCC(OC(=O)C2(O)c3ccccc3C=Cc3ccccc32)C1 (centres undefined),inactive: 1.1
7,COc1cccc(C(=O)NCC2(N3CCCCC3)CCCCC2)c1,inactive
8,O=C(OC1CN2CCC1CC2)C(CO)(c1ccccc1)c1ccccc1 (centres undefined),inactive
9,CN(C)c1cccc(C(=O)NCC2(N(C)C)CCCCC2)c1,inactive: 1.1
